The values below are quoted from earlier work in patent US8344017B2, “Anti-hepatitis C virus agents and anti-HIV agents” (Mitsubishi Corporation, priority 2003, dated 2013).

The chains behind the UniProt entries cited, without tags or fusion partners. Residues count along the entry.
UniProt P27958, 2421-3011: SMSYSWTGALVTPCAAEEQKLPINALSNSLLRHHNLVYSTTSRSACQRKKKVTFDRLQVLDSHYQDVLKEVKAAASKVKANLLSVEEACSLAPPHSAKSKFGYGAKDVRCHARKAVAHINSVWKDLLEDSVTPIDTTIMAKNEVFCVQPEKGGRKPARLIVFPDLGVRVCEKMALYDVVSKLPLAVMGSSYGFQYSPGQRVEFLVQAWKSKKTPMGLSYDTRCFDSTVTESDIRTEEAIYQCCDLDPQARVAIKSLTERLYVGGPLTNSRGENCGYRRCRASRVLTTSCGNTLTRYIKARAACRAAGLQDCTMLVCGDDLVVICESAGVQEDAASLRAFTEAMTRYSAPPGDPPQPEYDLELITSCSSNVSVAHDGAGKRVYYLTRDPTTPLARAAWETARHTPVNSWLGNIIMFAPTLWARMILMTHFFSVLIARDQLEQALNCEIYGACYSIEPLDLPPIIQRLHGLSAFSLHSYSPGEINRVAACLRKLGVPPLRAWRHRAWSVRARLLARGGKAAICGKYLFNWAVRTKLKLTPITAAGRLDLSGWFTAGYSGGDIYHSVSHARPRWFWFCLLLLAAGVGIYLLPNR

The data set has as its target RNA polymerase of hepatitis C virus (Hepatitis C virus genotype 1a, UniProt P27958). Conditions: read-out: 50% inhibition concentration, reported by D. Dhanak et al., J. Biol. Chem. 2002; cited from earlier work.

Turning to `CC(C)CCn1c(=O)c(C2=NS(=O)(=O)c3ccccc3N2)c(O)c2ccccc21`, the IC50 is 80 nM.
